Molecular target: AM2 receptor (Homo sapiens, UniProt O60896+Q16602)
Assay: TR-FRET cAMP accumulation, inhibition of agonist-induced cAMP in AM2 receptor-overexpressing cells
Assay type: cell-based
Settings: Table 1, different CLR-binding fragments
Experimental: The ability of the compounds to inhibit cAMP production induced by an EC50 concentration of the maximum agonist activation (information previously published[34]) in GPCR/RAMP-overexpressing cells (i.e., AM2, CGRP cells) was evaluated using cAMP accumulation assays. Each compound was tested at 8 full-log concentrations (10^–11–10^–5 M) including a negative control (blank). The total cAMP was measured using the TR-FRET LANCE cAMP detection kit (PerkinElmer, AD0264), as described previously.[34] Briefly, frozen cells ([…]) were thawed and prepared in warm stimulation buffer (1× HBSS, 5 mM N-(2-hydroxyethyl)piperazine-N′-ethanesulfonic acid (HEPES), 0.5 mM IBMX, and 0.1% bovine serum albumin (BSA)). Alexa Fluor conjugated anti-cAMP (1:100 concentration) was then added to the cell suspension, and cells were plated (2500 cells, 6 μL) in a 384-well white opaque microtiter plate (OptiPlates, PerkinElmer, 6007299). […] Subsequently, a 12 μL detection mix (Europium-Chelate streptavidin/biotinylated cAMP) was added to stop the reaction and induce cell lysis. TR-FRET was detected after an hour of incubation by an EnSight multimode Plate reader (PerkinElmer) at 320/340 nm excitation and 615/665 nm emission. Data were normalized to agonist only and blank (stimulation buffer only) wells as 0 and 100% cAMP inhibition, respectively. […]

By UniProt entry, the sequences of proteins in these tests, tags left out. Residues count along the entry.
UniProt O60896, 24-148: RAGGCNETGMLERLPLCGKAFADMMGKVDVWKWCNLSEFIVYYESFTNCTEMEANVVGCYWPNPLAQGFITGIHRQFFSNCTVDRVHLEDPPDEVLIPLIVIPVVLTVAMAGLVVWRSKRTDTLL
UniProt Q16602, 23-461: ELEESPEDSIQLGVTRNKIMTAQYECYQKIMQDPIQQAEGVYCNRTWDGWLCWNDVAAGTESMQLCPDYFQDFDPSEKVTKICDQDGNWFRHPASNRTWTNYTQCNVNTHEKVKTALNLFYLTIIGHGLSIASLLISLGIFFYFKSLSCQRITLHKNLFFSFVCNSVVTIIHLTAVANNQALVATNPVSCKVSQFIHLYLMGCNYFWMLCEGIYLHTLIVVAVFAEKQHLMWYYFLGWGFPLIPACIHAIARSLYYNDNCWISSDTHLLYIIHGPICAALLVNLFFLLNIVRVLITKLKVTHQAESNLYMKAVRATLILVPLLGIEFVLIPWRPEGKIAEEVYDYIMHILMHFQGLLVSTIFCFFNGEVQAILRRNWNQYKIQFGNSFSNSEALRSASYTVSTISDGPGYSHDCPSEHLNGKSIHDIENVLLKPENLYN

CN1C(=O)NC(=O)C12Cc1ccc(NC(=O)CN(Cc3ccccc3)C(=O)C(C)(C)C)cc1C2 (stereo not shown) [Compound 1, reference compound]
AM2 pIC50: 5.9

Reference: article PMC8006142 (Journal of Medicinal Chemistry, 2021)
